Experimental data as given in patent US9174992B2, “Heterobicyclic compounds” (Amgen Inc., priority 2012, dated 2015).

Protein sequences, listed by entry. Tags and fused reporters are not part of them.
UniProt Q9Y233, whole entry: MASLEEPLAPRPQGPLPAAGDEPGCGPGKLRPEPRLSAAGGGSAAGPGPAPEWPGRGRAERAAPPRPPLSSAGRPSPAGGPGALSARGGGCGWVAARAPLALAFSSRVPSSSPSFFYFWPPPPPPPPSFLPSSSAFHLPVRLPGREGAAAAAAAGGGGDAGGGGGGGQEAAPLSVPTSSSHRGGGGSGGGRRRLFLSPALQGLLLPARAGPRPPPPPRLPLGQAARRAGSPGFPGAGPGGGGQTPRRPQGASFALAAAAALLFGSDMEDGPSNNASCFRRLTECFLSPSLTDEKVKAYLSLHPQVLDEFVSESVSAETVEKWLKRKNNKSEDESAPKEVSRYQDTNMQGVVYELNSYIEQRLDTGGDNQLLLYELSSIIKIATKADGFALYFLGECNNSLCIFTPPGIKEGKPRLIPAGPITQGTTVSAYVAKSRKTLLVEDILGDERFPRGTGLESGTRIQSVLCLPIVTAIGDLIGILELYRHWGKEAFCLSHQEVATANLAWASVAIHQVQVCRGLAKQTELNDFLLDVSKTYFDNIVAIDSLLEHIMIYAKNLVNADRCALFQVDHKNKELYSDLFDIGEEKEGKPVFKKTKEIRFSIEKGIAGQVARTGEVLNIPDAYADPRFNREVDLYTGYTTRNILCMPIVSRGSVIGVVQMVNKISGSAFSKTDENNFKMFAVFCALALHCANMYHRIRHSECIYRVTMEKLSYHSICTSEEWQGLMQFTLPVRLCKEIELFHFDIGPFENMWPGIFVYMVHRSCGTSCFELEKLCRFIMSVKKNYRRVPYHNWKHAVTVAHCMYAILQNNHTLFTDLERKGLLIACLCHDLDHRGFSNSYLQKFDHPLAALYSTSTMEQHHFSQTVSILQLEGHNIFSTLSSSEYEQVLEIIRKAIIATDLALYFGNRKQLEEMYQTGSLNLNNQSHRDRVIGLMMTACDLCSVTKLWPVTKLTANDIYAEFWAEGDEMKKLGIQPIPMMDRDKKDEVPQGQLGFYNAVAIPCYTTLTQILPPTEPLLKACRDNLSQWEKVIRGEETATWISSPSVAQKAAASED

Molecular target: PDE10A (UniProt Q9Y233)
Assay: PDE10 enzyme inhibition, IMAP TR-FRET assay (Example A, MPDE10A7 Enzyme Activity and Inhibition)
Type: biochemical
Details: approximate IC50 value, Table 10

IC50 [µM] | Structure (SMILES)
0.193 | COC(=O)c1cnc(N[C@H]2C[C@H](n3c(=O)n(C4CC4)c4nccnc43)C2)s1 (relative stereo)
8.48 | O=C(O)c1cnc(N[C@H]2C[C@H](n3c(=O)n(C4CC4)c4nccnc43)C2)s1 (relative stereo)
